# Values quoted from earlier work, collected in patent US12269857B2, “Protein tyrosine-tyrosine analogs and methods of using the same” (Eli Lilly and Company, priority 2018, dated 2025).
# Conditions: exogenously administered; cited from earlier work
substance,measurement,value
PYY3-36,half-life,10 to 15 min
